The record followed here is the SangsterLogP compilation.

For the data set the following is noted: pH 7.0.

Turning to `COc1cc2c(c(OC)c1OC)-c1ccc(OC)c(=O)cc1[C@@H](NC(C)=O)[C@H](O)C2`, the logD was 0.33.
